Targets include HLA-B*1801 (Homo sapiens, UniProt P01889, A329T/A93T/A95T/C349S/D201E/D54G/D98Y/E176V/E187T/E204Q/E69T/K202T/Q94N/R155S/R180L/S121R/V306I/Y140S/Y195H/Y33H/Y91S); HLA-B*4001 (Homo sapiens, UniProt P01889, A65T/A93T/A95T/D138N/D98Y/E176V/E69K/N87E/Q56L/Q94N/R180L/S121R/S35A/S48T/T167S/V36M/W171L/Y33H/Y91S); HLA-B*4402 (Homo sapiens, UniProt P01889, A223V/A65T/A93T/A95T/D201E/D98Y/E176V/E187L/E204Q/E69K/G107R/H137Y/K202T/L105A/L119I/N104T/N87E/Q56L/Q94N/R106L/R155S/R180D/S101N/S121R/S35A/S48T/T118I/V36M/W191S/Y140D/Y91S); HLA-B*4403 (Homo sapiens, UniProt P01889, A223V/A65T/A93T/A95T/D201E/D98Y/E176V/E187L/E204Q/E69K/G107R/H137Y/K202T/L105A/L119I/N104T/N87E/Q56L/Q94N/R106L/R155S/R180L/S101N/S121R/S35A/S48T/T118I/V36M/W191S/Y140D/Y91S).

Common to all, as to assay: biochemical
Holding throughout (type): binding

Another test concerns the target HLA-B*4002 (Homo sapiens, UniProt P01889, A65T/A93T/A95T/D138N/D201E/D98Y/E176V/E204Q/E69K/K202T/N87E/Q56L/Q94N/R180L/S48T/Y33H/Y91S). As to conditions: B*4002.
The next test addresses HLA-B*4501 (Homo sapiens, UniProt P01889, A329T/A65T/A93T/A95T/C349S/D138N/D201E/D98Y/E176V/E187L/E204Q/E69K/H137Y/K202T/L119W/N87E/Q56L/Q94N/R155S/R180D/S121R/S35A/S48T/V127L/V306I/V36M/W191S/Y140L/Y33H/Y91S). As to conditions: B*4501.

Among the data in US20060079453A1, “Hla binding peptides and their uses” (priority 2002, published 2006) are IC50 values, retold here.

pIC50: −log10 of the molar value. Read-outs that look alike come from different tables or passages of the source.

For `CC[C@H](C)[C@H](NC(=O)[C@H](Cc1ccc(O)cc1)NC(=O)[C@H](CC(C)C)NC(=O)[C@H](Cc1ccc(O)cc1)NC(=O)CNC(=O)[C@@H](NC(=O)[C@@H](NC(=O)[C@H](CCC(=O)O)NC(=O)[C@@H](N)CCC(=O)O)[C@@H](C)CC)[C@@H](C)O)C(=O)N[C@@H](CO)C(=O)N[C@@H](C)C(=O)N[C@@H](Cc1c[nH]c2ccccc12)C(=O)O`, the pIC50 at HLA-B*4002 was 5.74; at HLA-B*1801 (B*1801) it was 6.13; on HLA-B*4001 (B*4001), 6.32; at HLA-B*4402 (B*4402) it was 6.60; against HLA-B*4403 (B*4403), 5.83.
For the molecule `CC(C)C[C@H](NC(=O)[C@@H](NC(=O)[C@H](CO)NC(=O)[C@H](CO)NC(=O)[C@H](CO)NC(=O)[C@H](CO)NC(=O)[C@H](C)NC(=O)[C@@H](NC(=O)[C@H](CCC(N)=O)NC(=O)[C@H](CCC(N)=O)NC(=O)[C@H](CCC(=O)O)NC(=O)[C@@H](N)CCC(=O)O)[C@@H](C)O)[C@@H](C)O)C(=O)O`, the pIC50 is 7.82 against HLA-B*4501, 5.14 on HLA-B*1801 (B*1801), 6.78 at HLA-B*4001 (B*4001) and 6.01 against HLA-B*4403 (B*4403).
For the molecule `CC(C)C[C@H](NC(=O)CNC(=O)[C@H](CC(C)C)NC(=O)[C@H](C)NC(=O)[C@H](CCC(=O)O)NC(=O)CNC(=O)[C@H](CCCNC(=N)N)NC(=O)[C@H](C)NC(=O)[C@H](CCC(=O)O)NC(=O)[C@@H](N)CC(C)C)C(=O)N[C@H](C(=O)NCC(=O)N[C@@H](C)C(=O)O)C(C)C`, the pIC50 on HLA-B*1801 (B*1801) was 6.46; against HLA-B*4001 (B*4001) it was 7.70; against HLA-B*4402 (B*4402), 5.59; against HLA-B*4403 (B*4403), 8.66.
Consider `CSCC[C@H](N)C(=O)N[C@@H](CCC(=O)O)C(=O)N[C@@H](Cc1c[nH]cn1)C(=O)N[C@@H](CC(C)C)C(=O)N[C@@H](CCCNC(=N)N)C(=O)N[C@@H](CCC(=O)O)C(=O)N[C@H](C(=O)N[C@@H](CCCNC(=N)N)C(=O)N[C@@H](C)C(=O)N[C@H](C(=O)N[C@H](C(=O)N[C@@H](CO)C(=O)N[C@@H](C)C(=O)O)[C@@H](C)O)C(C)C)C(C)C`, for which the pIC50 is 7.92 at HLA-B*4501; 7.15 on HLA-B*1801 (B*1801); 6.17 against HLA-B*4001 (B*4001); 6.84 against HLA-B*4402 (B*4402); 7.74 on HLA-B*4403 (B*4403).
As to `CSCC[C@H](N)C(=O)N[C@@H](CCC(=O)O)C(=O)N[C@@H](CC(C)C)C(=O)N[C@@H](C)C(=O)N[C@@H](C)C(=O)N[C@@H](CC(C)C)C(=O)N[C@@H](CS)C(=O)N[C@@H](CCCNC(=N)N)C(=O)N[C@@H](Cc1c[nH]c2ccccc12)C(=O)O`, the pIC50 at HLA-B*1801 (B*1801) is 8.15; at HLA-B*4001 (B*4001), 5.32; against HLA-B*4402 (B*4402), 7.80; against HLA-B*4403 (B*4403) it was 8.00.
For `CC(C)C[C@H](NC(=O)[C@H](Cc1ccc(O)cc1)NC(=O)[C@@H](NC(=O)[C@H](C)NC(=O)[C@H](CC(=O)O)NC(=O)[C@H](CCC(N)=O)NC(=O)[C@@H](NC(=O)[C@H](CCC(=O)O)NC(=O)[C@@H]1CCCN1)[C@@H](C)O)[C@@H](C)O)C(=O)O`, the pIC50 was 4.47 against HLA-B*4002; 5.02 against HLA-B*1801 (B*1801); 5.91 at HLA-B*4001 (B*4001); under 4.46 against HLA-B*4402 (B*4402); 6.52 against HLA-B*4403 (B*4403).
As for `CC[C@H](C)[C@H](NC(=O)[C@H](CC(C)C)NC(=O)[C@@H](NC(=O)[C@H](Cc1ccc(O)cc1)NC(=O)CNC(=O)[C@H](CCC(N)=O)NC(=O)[C@@H](NC(=O)[C@H](CCC(=O)O)NC(=O)[C@@H](N)CCC(N)=O)C(C)C)C(C)C)C(=O)O`, the pIC50 is 7.41 against HLA-B*4002; 7.02 at HLA-B*4501; 7.11 on HLA-B*1801 (B*1801); 7.52 on HLA-B*4402 (B*4402); 9.30 against HLA-B*4403 (B*4403).
On to `CC[C@H](C)[C@H](NC(=O)[C@H](CCC(=O)O)NC(=O)[C@@H](N)CCCNC(=N)N)C(=O)N1CCC[C@H]1C(=O)N[C@@H](CC(=O)O)C(=O)N[C@@H](CC(C)C)C(=O)N[C@@H](CC(C)C)C(=O)N[C@@H](CCC(=O)O)C(=O)N[C@@H](CCCCN)C(=O)NCC(=O)N[C@@H](CCC(=O)O)C(=O)N[C@@H](CCCNC(=N)N)C(=O)N[C@@H](CC(C)C)C(=O)O`, for which the pIC50 at HLA-B*4501 was 5.57; against HLA-B*1801 (B*1801) it was 5.12; at HLA-B*4001 (B*4001) it was 7.40; against HLA-B*4402 (B*4402), 5.52; on HLA-B*4403 (B*4403) it was 7.80.
For `CC[C@H](C)[C@H](NC(=O)[C@H](CCC(=O)O)NC(=O)[C@@H](NC(=O)[C@H](CC(C)C)NC(=O)[C@H](CO)NC(=O)[C@H](CCCNC(=N)N)NC(=O)[C@H](CC(C)C)NC(=O)[C@H](CCC(N)=O)NC(=O)[C@H](CC(C)C)NC(=O)[C@H](CCC(=O)O)NC(=O)[C@@H](N)CCCNC(=N)N)[C@@H](C)O)C(=O)N[C@@H](CC(C)C)C(=O)O`, the pIC50 against HLA-B*4002 was 6.22; against HLA-B*1801 (B*1801) it was 5.23; at HLA-B*4001 (B*4001) it was 6.82; at HLA-B*4402 (B*4402) it was 5.42; at HLA-B*4403 (B*4403), 8.96.
As for `CSCC[C@H](NC(=O)[C@H](CCC(=O)O)NC(=O)[C@H](C)NC(=O)[C@H](CCCCN)NC(=O)[C@@H](NC(=O)[C@@H](NC(=O)[C@@H]1CCCN1C(=O)[C@H](CCC(=O)O)NC(=O)[C@@H](N)CCCNC(=N)N)C(C)C)[C@@H](C)O)C(=O)N[C@@H](CC(C)C)C(=O)N[C@@H](CCC(=O)O)C(=O)N[C@@H](CO)C(=O)N[C@H](C(=O)O)C(C)C`, the pIC50 was 6.39 at HLA-B*4002, 5.82 on HLA-B*4501, 5.26 against HLA-B*1801 (B*1801) and 7.68 against HLA-B*4403 (B*4403).
Consider `CSCC[C@H](NC(=O)[C@H](CCCNC(=N)N)NC(=O)[C@H](CO)NC(=O)[C@H](Cc1ccccc1)NC(=O)[C@H](CCC(=O)O)NC(=O)[C@@H](N)CO)C(=O)N[C@@H](C)C(=O)N[C@@H](CCCNC(=N)N)C(=O)N[C@@H](CC(=O)O)C(=O)N1CCC[C@H]1C(=O)N[C@@H](CCC(N)=O)C(=O)N[C@@H](CCCNC(=N)N)C(=O)N[C@@H](Cc1ccccc1)C(=O)O`, for which the pIC50 against HLA-B*4002 is 7.24; at HLA-B*1801 (B*1801) it was 7.21; at HLA-B*4001 (B*4001) it was 6.46; against HLA-B*4402 (B*4402), 7.64; against HLA-B*4403 (B*4403), 7.92.
As for `CC(C)C[C@H](NC(=O)[C@H](CC(=O)O)NC(=O)CNC(=O)[C@H](CC(=O)O)NC(=O)[C@H](Cc1ccccc1)NC(=O)[C@@H](NC(=O)[C@H](CC(=O)O)NC(=O)[C@H](CO)NC(=O)CNC(=O)[C@H](C)NC(=O)CNC(=O)[C@H](CCC(=O)O)NC(=O)[C@@H](N)CO)C(C)C)C(=O)O`, the pIC50 on HLA-B*4501 was 5.61; against HLA-B*1801 (B*1801) it was 5.29; against HLA-B*4001 (B*4001) it was 7.35; on HLA-B*4402 (B*4402), 5.89; against HLA-B*4403 (B*4403), 6.15.
In the case of `CC[C@H](C)[C@H](NC(=O)[C@@H]1CCCN1C(=O)[C@@H](NC(=O)[C@H](CCCCN)NC(=O)CNC(=O)CNC(=O)[C@H](CC(=O)O)NC(=O)[C@H](C)NC(=O)[C@H](Cc1c[nH]cn1)NC(=O)[C@H](Cc1ccc(O)cc1)NC(=O)[C@H](CCC(=O)O)NC(=O)[C@@H](N)[C@@H](C)O)C(C)C)C(=O)O`, the pIC50 is 8.36 against HLA-B*4002, 6.17 against HLA-B*1801 (B*1801), 7.66 against HLA-B*4001 (B*4001) and 7.21 on HLA-B*4403 (B*4403).
Consider `CC[C@H](C)[C@H](NC(=O)[C@@H]1CCCN1C(=O)[C@@H](NC(=O)[C@@H](NC(=O)[C@H](CCC(=O)O)NC(=O)[C@@H](N)C(C)C)C(C)C)C(C)C)C(=O)N[C@@H](CO)C(=O)N[C@@H](Cc1c[nH]cn1)C(=O)N[C@@H](CC(C)C)C(=O)N[C@@H](Cc1ccc(O)cc1)C(=O)O`, for which the pIC50 against HLA-B*4501 was 5.31; against HLA-B*1801 (B*1801), 7.70; against HLA-B*4403 (B*4403), 5.91.
For the molecule `CC[C@H](C)[C@H](NC(=O)[C@H](Cc1ccc(O)cc1)NC(=O)[C@H](CC(C)C)NC(=O)[C@H](Cc1c[nH]cn1)NC(=O)[C@H](CO)NC(=O)[C@@H](NC(=O)[C@@H]1CCCN1C(=O)[C@@H](NC(=O)[C@@H](NC(=O)[C@H](CCC(=O)O)NC(=O)[C@@H](N)C(C)C)C(C)C)C(C)C)[C@@H](C)CC)C(=O)N[C@@H](CC(C)C)C(=O)O`, the pIC50 at HLA-B*1801 (B*1801) is 6.58; against HLA-B*4001 (B*4001) it was 8.47; on HLA-B*4402 (B*4402), 6.31; at HLA-B*4403 (B*4403), 8.40.
`CC[C@H](C)[C@H](NC(=O)[C@H](Cc1ccc(O)cc1)NC(=O)[C@H](CC(C)C)NC(=O)[C@H](Cc1c[nH]cn1)NC(=O)[C@H](CO)NC(=O)[C@@H](NC(=O)[C@@H]1CCCN1C(=O)[C@@H](NC(=O)[C@@H](NC(=O)[C@H](CCC(=O)O)NC(=O)[C@@H](N)C(C)C)C(C)C)C(C)C)[C@@H](C)CC)C(=O)N[C@@H](CC(C)C)C(=O)N[C@H](C(=O)O)C(C)C`: the pIC50 on HLA-B*4002 was 7.33; on HLA-B*1801 (B*1801), 7.04; at HLA-B*4001 (B*4001) it was 7.03; against HLA-B*4402 (B*4402) it was 6.57; at HLA-B*4403 (B*4403), 7.29.
In the case of SENDRYRIL, the pIC50 is 4.74 at HLA-B*1801 (read-out: B*1801), 6.57 on HLA-B*4001 (read-out: B*4001), 6.74 at HLA-B*4402 (read-out: B*4402) and 6.79 at HLA-B*4403 (read-out: B*4403).
